We go through one substance from publication PMC11150675, “Simultaneous determination of multiple components in rat plasma by UPLC-MS/MS for pharmacokinetic studies after oral administration of Pogostemon cablin extract” (Frontiers in Pharmacology, 2024).

The series is described as follows: PK study in rats after single oral administration of Pogostemon cablin (PC) extract, plasma analysed by UPLC-MS/MS. The settings on record: rat plasma, PC extract 4.0 g/kg single oral dose, n = 6.

In the case of β-rhamnocitrin, the “AUC (0-∞)” value was determined as 112.7 ± 38.4 ng·h/mL, the Cmax was found to be 17.4 ± 4.5 ng/mL and the T1/2z was 4.8 ± 2.6 h.

What is called Cmax is the maximum level reached in the sampled fluid or tissue.
